In patent US8541572B2:

System: TNF-α production in LPS-stimulated human whole blood
Assay: Inhibition of TNF-α production from human whole blood (hWBA)
Type: cell-based
Conditions: Homo sapiens, IC50 for TNF-α production

SMILES	IC50 [nM]
CON=C(c1ccc(C#C[C@]2(CN3Cc4ccc(OC)cc4C3=O)NC(=O)NC2=O)cc1)N1CCOCC1 [Compound 932]	1240
COc1ccc2c(c1)C(=O)N(C[C@]1(C#Cc3ccnc(SC)n3)NC(=O)NC1=O)C2 [Compound 2250]	10000
COc1ccc2c(c1)C(=O)N(C[C@@]1(C#Cc3ccc(F)c(C(O)(O)C(F)(F)F)c3)NC(=O)NC1=O)C2 [Compound 2251]	1180
COc1ccc2c(c1)C(=O)N(C[C@@]1(C#Cc3ccc([C@H]4CCC(=O)N4)cc3)NC(=O)NC1=O)C2 [Compound 2259]	736
COc1ccc2c(c1)C(=O)N(C[C@@]1(C#Cc3ccc(-c4cnn(C)c4)nc3)NC(=O)NC1=O)C2 [Compound 2269]	1030
COc1ccc2c(c1)C(=O)N(C[C@@]1(C#Cc3ccc(N/C(N)=N\C#N)cc3)NC(=O)NC1=O)C2 [Compound 2275]	150
CCC1(c2ccc(C#CC3(CN4Cc5ccc(OC)cc5C4=O)NC(=O)NC3=O)cc2)NC(=O)NC1=O (centres unmarked) [Compound 2279]	225
COc1ccc2c(c1)C(=O)N(C[C@@]1(C#Cc3ccc(C4(C)NC(=O)NC4=O)nc3)NC(=O)NC1=O)C2 (some centres unmarked) [Compound 2280]	544
COc1ccc2c(c1)C(=O)N(CC1(C#Cc3ccc(N/C(=N\C#N)NC4CC4)cc3)NC(=O)NC1=O)C2 (centres unmarked) [Compound 2297]	268
COc1ccc2c(c1)C(=O)N(C[C@@]1(C#Cc3ccc4c(c3)CC[C@]43NC(=O)NC3=O)NC(=O)NC1=O)C2 [Compound 2313]	186
COc1ccc2c(c1)C(=O)N(C[C@@]1(C#Cc3ccc4c(c3)CC[C@@]43NC(=O)NC3=O)NC(=O)NC1=O)C2 [Compound 2314]	281
COc1ccc2c(c1)C(=O)N(C[C@@]1(C#Cc3ccc4c(c3)CCC43NC(=O)NC3=O)NC(=O)NC1=O)C2 (some centres unmarked) [Compound 2315]	151

Same assay, conditions: Homo sapiens, IC50 for inhibition of TNF-α production

SMILES	IC50 [nM]
COc1ccc2c(c1)C(=O)N(C[C@@]1(C#Cc3ccc(C(N)C(F)(F)F)cc3)NC(=O)NC1=O)C2 (some centres unmarked) [Compound 300]	1090
COc1ccc2c(c1)C(=O)N(C[C@@]1(C#Cc3ccc4c(c3)CN(C)C(=O)N4)NC(=O)NC1=O)C2 [Compound 306]	507
COc1ccc2c(c1)C(=O)N(C[C@@]1(C#Cc3ccc(-c4cc(N)n(C)n4)cc3)NC(=O)NC1=O)C2 [Compound 709]	223
COc1ccc2c(c1)C(=O)N(C[C@@]1(C#Cc3ccc4c(N)nn(C)c4c3)NC(=O)NC1=O)C2 [Compound 718]	1110
COc1ccc2c(c1)C(=O)N(C[C@@]1(C#Cc3ccc(C4CCN(C)CC4)nc3)NC(=O)NC1=O)C2 [Compound 745]	245
COc1ccc2c(c1)C(=O)N(C[C@@]1(C#Cc3ccc4c(c3)c(N)nn4C)NC(=O)NC1=O)C2 [Compound 746]	2900
CCC(=O)Oc1ccc(-c2cnn(C)c2)nc1-c1ccc(C#C[C@]2(CN3Cc4ccc(OC)cc4C3=O)NC(=O)NC2=O)cc1 [Compound 988]	55.9
COc1ccc2c(c1)C(=O)N(C[C@@]1(C#Cc3ccc(-c4nc(-c5cnn(C)c5)ccc4OC(=O)C(C)C)cc3)NC(=O)NC1=O)C2 [Compound 989]	48
COc1ccc2c(c1F)C(=O)N(C[C@@]1(C#Cc3ccc(C4(C)NC(=O)NC4=O)c(F)c3)NC(=O)NC1=O)C2 (some centres unmarked) [Compound 1302]	148
COc1ccc2c(c1F)C(=O)N(C[C@@]1(C#Cc3cncc(F)c3)NC(=O)NC1=O)C2 [Compound 1310]	305
COc1ccc2c(c1)C(=O)N(C[C@@]1(C#Cc3nc(N4C[C@@H](O)CC4=O)ccc3OC)NC(=O)NC1=O)C2 [Compound 1500]	837
COc1ccc2c(c1)C(=O)N(C[C@@]1(C#Cc3nc(N4C(=O)CC[C@H]4CO)ccc3OC)NC(=O)NC1=O)C2 [Compound 1502]	1540
COc1ccc2c(c1)C(=O)N(C[C@@]1(C#Cc3nc(N4C[C@H](O)CC4=O)ccc3OC)NC(=O)NC1=O)C2 [Compound 1503]	1130
COc1ccc2c(c1)C(=O)N(C[C@@]1(C#Cc3nc(-c4cncc(C#N)c4)ccc3OC)NC(=O)NC1=O)C2 [Compound 1513]	1790
COc1ccc2c(c1)C(=O)N(C[C@@]1(C#Cc3ccc(C4(O)CCNCC4)cc3)NC(=O)NC1=O)C2 [Compound 1700]	2390
COc1ccc2c(c1F)C(=O)N(C[C@@]1(C#Cc3ccc(C4(O)CCNCC4)cc3)NC(=O)NC1=O)C2 [Compound 1701]	137
COc1ccc2c(c1)C(=O)N(C[C@@]1(C#Cc3ccc(N4C(=O)CCC4C(=O)NC4CC4)cc3)NC(=O)NC1=O)C2 (some centres unmarked) [Compound 1902]	127
COc1ccc2c(c1)C(=O)N(C[C@@]1(C#Cc3cncc(-c4ccc(N)nc4)c3)NC(=O)NC1=O)C2 [Compound 2206]	514
COc1ccc2c(c1)C(=O)N(C[C@@]1(C#Cc3ccc(C4(CN)NC(=O)NC4=O)cc3)NC(=O)NC1=O)C2 (some centres unmarked) [Compound 2215]	229
COc1ccc2c(c1)C(=O)N(C[C@@]1(C#Cc3ccc([C@@]4(CN)NC(=O)NC4=O)cc3)NC(=O)NC1=O)C2 [Compound 2218]	122
COc1ccc2c(c1)C(=O)N(C[C@@]1(C#Cc3ccc4c(N)n[nH]c4c3)NC(=O)NC1=O)C2 [Compound 2236]	310
CCN1CCN(c2n[nH]c3cc(C#C[C@]4(CN5Cc6ccc(OC)cc6C5=O)NC(=O)NC4=O)ccc23)CC1 [Compound 2239]	188
COc1ccc2c(c1)C(=O)N(C[C@@]1(C#Cc3cncc(NS(C)(=O)=O)c3)NC(=O)NC1=O)C2 [Compound 2240]	386
COc1ccc2c(c1)C(=O)N(C[C@@]1(C#Cc3cncc(NS(=O)(=O)C(C)C)c3)NC(=O)NC1=O)C2 [Compound 2241]	1000
COc1ccc2c(c1)C(=O)N(C[C@@]1(C#Cc3cc(Cl)cnc3N)NC(=O)NC1=O)C2 [Compound 2248]	10000
COc1ccc2c(c1)C(=O)N(C[C@@]1(C#Cc3ccnc(SC)n3)NC(=O)NC1=O)C2 [Compound 2249]	3040

Same assay, conditions: IC50 for inhibition of TNF-α production

SMILES	IC50 [nM]
O=C1NC(=O)[C@](C#Cc2cccnc2)(CN2Cc3ccc(I)cc3C2=O)N1 [Compound 308]	100000
O=C1NC(=O)[C@](C#Cc2cccnc2)(CN2Cc3ccc(I)cc3C2=O)N1 [Compound 309]	977

System: not listed separately
Assay: Area under the curve determination of plasma levels in rats (rrAUC)
Type: in vivo
Conditions: rat, oral 10 mg/kg, plasma 0.5-6 h; read-out: RR AUC (nM · h), rapid rat AUC (rrAUC)
Protocol: Area under the Curve Determinations of Plasma Levels in Rats (rrAUC)
To gain insight into the pharmacokinetic properties of the compounds of the invention, plasma levels of the compounds in rats were determined according to the protocol described in Korfmacher, W. A.; Cox, K. A.; Ng, K. J.; Veals, J.; Hsieh, Y.; Wainhaus, S.; Broske, L.; Prelusky, D.; Nomeir, A.; White, R. E. Rapid Commun. Mass Spectrom. 2001, 15, 335. Briefly, rats, after an overnight fast, were dosed orally with the test compound at a dose of 10 mg/kg in a 5 mL/kg dose volume. Blood was collected at 0.5, 1, 2, 3, 4, and 6 h post-dosing. Mass spectrometry using high performance liquid chromatography was used to identify and measure the concentrations of the test compounds in the plasma at the various time points. The parent ion of each test compound was used to identify and quantitate the compounds in plasma.

SMILES	AUC [µM·h]
COc1ccc2c(c1)C(=O)N(C[C@@]1(C#Cc3ccc4c(c3)CCC43NC(=O)NC3=O)NC(=O)NC1=O)C2 (some centres unmarked) [Compound 2315]	0.673
